Experiment: Solubility and natural pH of CGP
Assay type: physicochemical

calcium glycerophosphate [CGP]
natural pH: about 8.4 | solubility in alcohol (alcohol): insoluble | solubility in water (water): only sparingly soluble

From patent publication US20140363486A1, “METHODS FOR REDUCING OR ALTERING SCAR FORMATION” (Prelief, Inc., priority 2007, published 2014)
